{
  "source": "patent US20030022820A1",
  "about": "“IN VIVO ACTIVATION OF TUMOR-SPECIFIC CYTOTOXIC T CELLS” (priority 1995, published 2003)",
  "key": {"JY": {"test_system": "JY", "assay": "Cytotoxicity assay, lysis of human tumors by H3 and H7 specific CTL", "assay_type": "cell-based", "parameters": "scale not given here", "conditions": "Lymphoma, A2 +"}, "MALME-3M": {"test_system": "MALME-3M", "assay": "Cytotoxicity assay, lysis of human tumors by H3 and H7 specific CTL", "assay_type": "cell-based", "parameters": "scale not given here", "conditions": "Melanoma, A2 +"}, "MDA.MB435": {"test_system": "MDA.MB435", "assay": "Cytotoxicity assay, lysis of human tumors by H3 and H7 specific CTL", "assay_type": "cell-based", "parameters": "scale not given here", "conditions": "Breast, A2 −"}, "[1]": {"test_system": "A2.1/K^b×CD8 or A2.1 transgenic (Tg) mice", "assay": "Immunization of transgenic mice with Her-2/neu peptides, cytotoxicity against peptide-pulsed T2-A2.1/K^b", "assay_type": "in vivo", "conditions": "A2.1/K^b×CD8 or A2.1 Tg mice"}, "BT549": {"test_system": "BT549", "assay": "Cytotoxicity assay, lysis of human tumors by H3 and H7 specific CTL", "assay_type": "cell-based", "conditions": "Breast, A2 +"}, "NCI.H1355": {"test_system": "NCI.H1355", "assay": "Cytotoxicity assay, lysis of human tumors by H3 and H7 specific CTL", "assay_type": "cell-based", "conditions": "Lung, A2 +"}, "ST486": {"test_system": "ST486", "assay": "Cytotoxicity assay, lysis of human tumors by H3 and H7 specific CTL", "assay_type": "cell-based", "conditions": "Lymphoma, A2 +"}, "CASKI": {"test_system": "CASKI", "assay": "Cytotoxicity assay, lysis of human tumors by H3 and H7 specific CTL", "assay_type": "cell-based", "conditions": "Cervix, A2 +"}, "SW480": {"test_system": "SW480", "assay": "Cytotoxicity assay, lysis of human tumors by H3 and H7 specific CTL", "assay_type": "cell-based", "conditions": "Colon, A2 +"}, "LG-2": {"test_system": "LG-2", "assay": "Cytotoxicity assay, lysis of human tumors by H3 and H7 specific CTL", "assay_type": "cell-based", "conditions": "EBV-trans., A2 +"}, "U2-OS": {"test_system": "U2-OS", "assay": "Cytotoxicity assay, lysis of human tumors by H3 and H7 specific CTL", "assay_type": "cell-based", "conditions": "Osteosarcoma, A2 +"}, "OVCAR-5": {"test_system": "OVCAR-5", "assay": "Cytotoxicity assay, lysis of human tumors by H3 and H7 specific CTL", "assay_type": "cell-based", "conditions": "Ovarian, A2 +"}, "SKMEL-5": {"test_system": "SKMEL-5", "assay": "Cytotoxicity assay, lysis of human tumors by H3 and H7 specific CTL", "assay_type": "cell-based", "conditions": "Melanoma, A2 +"}, "U87G": {"test_system": "U87G", "assay": "Cytotoxicity assay, lysis of human tumors by H3 and H7 specific CTL", "assay_type": "cell-based", "conditions": "Glioblastoma, A2 +"}, "MCF-7": {"test_system": "MCF-7", "assay": "Cytotoxicity assay, lysis of human tumors by H3 and H7 specific CTL", "assay_type": "cell-based", "conditions": "Breast, A2 +"}, "Hep-G2": {"test_system": "Hep-G2", "assay": "Cytotoxicity assay, lysis of human tumors by H3 and H7 specific CTL", "assay_type": "cell-based", "conditions": "Hepatoma, A2 +"}, "T98G": {"test_system": "T98G", "assay": "Cytotoxicity assay, lysis of human tumors by H3 and H7 specific CTL", "assay_type": "cell-based", "conditions": "Glioblastoma, A2 +"}, "MDA.M8231": {"test_system": "MDA.M8231", "assay": "Cytotoxicity assay, lysis of human tumors by H3 and H7 specific CTL", "assay_type": "cell-based", "conditions": "Breast, A2 +"}, "SV80": {"test_system": "SV80", "assay": "Cytotoxicity assay, lysis of human tumors by H3 and H7 specific CTL", "assay_type": "cell-based", "conditions": "Fibroblast, A2 +"}, "SAOS.175": {"test_system": "SAOS.175", "assay": "Cytotoxicity assay, lysis of human tumors by H3 and H7 specific CTL", "assay_type": "cell-based", "conditions": "Osteosarcoma, A2 +"}, "[2]": {"conditions": "+ CYT (γ-IFN 20 ng/ml plus TNF-α 3 ng/ml, 24 hours)"}},
  "data": [
    {"compound": "CC[C@H](C)[C@H](NC(=O)[C@@H](N)CCCCN)C(=O)N[C@@H](Cc1ccccc1)C(=O)NCC(=O)N[C@@H](CO)C(=O)N[C@@H](CC(C)C)C(=O)N[C@@H](C)C(=O)N[C@@H](Cc1ccccc1)C(=O)N[C@@H](CC(C)C)C(=O)O", "note": "[Peptide H3]", "values": [
      {"measurement": "Killing of Tumors Expressing Her-2/neu", "setting": "JY; [2]", "value": 1},
      {"measurement": "Killing of Tumors Expressing Her-2/neu", "setting": "JY; without cytokines", "value": 2},
      {"measurement": "Killing of Tumors Expressing Her-2/neu", "setting": "MALME-3M; [2]", "value": 57},
      {"measurement": "Killing of Tumors Expressing Her-2/neu", "setting": "MALME-3M; without cytokines", "value": 28},
      {"measurement": "Killing of Tumors Expressing Her-2/neu", "setting": "MDA.MB435; [2]", "value": 2},
      {"measurement": "Killing of Tumors Expressing Her-2/neu", "setting": "MDA.MB435; without cytokines", "value": 3},
      {"measurement": "ability to stimulate a CTL response in Tg mice, in words", "setting": "[1]", "value": "able to stimulate a CTL response"},
      {"measurement": "Killing of Tumors Expressing Her-2/neu", "setting": "BT549; [2]", "value": 40},
      {"measurement": "Killing of Tumors Expressing Her-2/neu", "setting": "BT549; without cytokines", "value": 2},
      {"measurement": "Killing of Tumors Expressing Her-2/neu", "setting": "NCI.H1355; [2]", "value": 38},
      {"measurement": "Killing of Tumors Expressing Her-2/neu", "setting": "NCI.H1355; without cytokines", "value": 11},
      {"measurement": "Killing of Tumors Expressing Her-2/neu", "setting": "ST486; [2]", "value": 1},
      {"measurement": "Killing of Tumors Expressing Her-2/neu", "setting": "ST486; without cytokines", "value": 1},
      {"measurement": "Killing of Tumors Expressing Her-2/neu", "setting": "CASKI; [2]", "value": 30},
      {"measurement": "Killing of Tumors Expressing Her-2/neu", "setting": "CASKI; without cytokines", "value": 13},
      {"measurement": "Killing of Tumors Expressing Her-2/neu", "setting": "SW480; [2]", "value": 50},
      {"measurement": "Killing of Tumors Expressing Her-2/neu", "setting": "SW480; without cytokines", "value": 6},
      {"measurement": "Killing of Tumors Expressing Her-2/neu", "setting": "LG-2; [2]", "value": 4},
      {"measurement": "Killing of Tumors Expressing Her-2/neu", "setting": "LG-2; without cytokines", "value": 2},
      {"measurement": "Killing of Tumors Expressing Her-2/neu", "setting": "U2-OS; [2]", "value": 91},
      {"measurement": "Killing of Tumors Expressing Her-2/neu", "setting": "U2-OS; without cytokines", "value": 32},
      {"measurement": "Killing of Tumors Expressing Her-2/neu", "setting": "OVCAR-5; [2]", "value": 29},
      {"measurement": "Killing of Tumors Expressing Her-2/neu", "setting": "OVCAR-5; without cytokines", "value": 25},
      {"measurement": "Killing of Tumors Expressing Her-2/neu", "setting": "SKMEL-5; [2]", "value": 38},
      {"measurement": "Killing of Tumors Expressing Her-2/neu", "setting": "SKMEL-5; without cytokines", "value": 6},
      {"measurement": "Killing of Tumors Expressing Her-2/neu", "setting": "U87G; [2]", "value": 1},
      {"measurement": "Killing of Tumors Expressing Her-2/neu", "setting": "U87G; without cytokines", "value": 2},
      {"measurement": "Killing of Tumors Expressing Her-2/neu", "setting": "MCF-7; [2]", "value": 54},
      {"measurement": "Killing of Tumors Expressing Her-2/neu", "setting": "MCF-7; without cytokines", "value": 7},
      {"measurement": "Killing of Tumors Expressing Her-2/neu", "setting": "Hep-G2; [2]", "value": 20},
      {"measurement": "Killing of Tumors Expressing Her-2/neu", "setting": "Hep-G2; without cytokines", "value": 4},
      {"measurement": "Killing of Tumors Expressing Her-2/neu", "setting": "T98G; [2]", "value": 99},
      {"measurement": "Killing of Tumors Expressing Her-2/neu", "setting": "T98G; without cytokines", "value": 20},
      {"measurement": "Killing of Tumors Expressing Her-2/neu", "setting": "MDA.M8231; [2]", "value": 85},
      {"measurement": "Killing of Tumors Expressing Her-2/neu", "setting": "MDA.M8231; without cytokines", "value": 34},
      {"measurement": "Killing of Tumors Expressing Her-2/neu", "setting": "SV80; [2]", "value": 8},
      {"measurement": "Killing of Tumors Expressing Her-2/neu", "setting": "SV80; without cytokines", "value": 4},
      {"measurement": "Killing of Tumors Expressing Her-2/neu", "setting": "SAOS.175; [2]", "value": 33},
      {"measurement": "Killing of Tumors Expressing Her-2/neu", "setting": "SAOS.175; without cytokines", "value": 27}
    ]}
  ]
}
